# Test results as given in PubChem BioAssay AID803 (The Scripps Research Institute Molecular Screening Center, 2007).
# Chains of the proteins cited; added tags and fusions are not shown.
# UniProt O43603, whole entry: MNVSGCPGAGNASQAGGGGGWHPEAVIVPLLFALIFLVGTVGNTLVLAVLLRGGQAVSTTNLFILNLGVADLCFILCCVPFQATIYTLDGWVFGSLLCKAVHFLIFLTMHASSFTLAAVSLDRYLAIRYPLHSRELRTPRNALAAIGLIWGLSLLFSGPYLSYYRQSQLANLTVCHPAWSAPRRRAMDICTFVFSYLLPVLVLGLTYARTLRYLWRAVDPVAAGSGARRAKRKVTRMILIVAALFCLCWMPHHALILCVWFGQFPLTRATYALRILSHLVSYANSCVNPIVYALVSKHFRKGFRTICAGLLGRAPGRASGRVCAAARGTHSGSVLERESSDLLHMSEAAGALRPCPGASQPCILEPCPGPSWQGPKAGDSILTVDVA
# Only a part is listed here, and it is no random draw. Some of these compounds have results that are not shown, active ones among them. Calls of active or inactive are those of the source. Cut-off read from the data, not from the text of the source: active = activation above about 5% (passing the limit was not always enough); inactive = the rest.
# Target: Galanin receptor type 2 (Homo sapiens) (UniProt O43603)
# Assay: GALR2 receptor agonists, primary screen, cell-based (AID 803);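 note: 0% = vehicle buffer wells and 100% = reference agonist at full effect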
# Conditions: GALR2-expressing cells, agonist activation read-out; at 5.6 µM; hits give high values
row,Structure (SMILES),activation
1,CCN1CCCC(OC(=O)C2(O)c3ccccc3C=Cc3ccccc32)C1 (stereo not given),inactive: -0.26%
2,CN(C)C1CCCC1OC(=O)C(O)(c1ccccc1)c1ccccc1 (stereo not given),inactive: -0.42%
3,CC(C)N1C(=O)CC2(CCN(CCOC(=O)C(O)(c3ccccc3)c3ccccc3)CC2)C1=O,inactive: -0.7%
4,CN(C)c1cccc(C(=O)NCC2(N(C)C)CCCCC2)c1,inactive: -1.04%
5,O=C(OC1CN2CCC1CC2)C(CO)(c1ccccc1)c1ccccc1 (stereo not given),inactive: -0.39%
